Reference: PubChem BioAssay AID463195 (Sanford-Burnham Center for Chemical Genomics, 2010)
Only a part is listed here, and it is no random draw. Calls of active or inactive are those of the source.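 How the source made its calls: active means inhibition of 40% or more at the single tested concentration; inactive means the rest.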

Experiment: wild-type TIM10 yeast growth inhibition – luminescence, uHTS, counter-screen for tim10-1 yeast inhibitor project, primary screen (AID 463195);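 further: wild-type TIM10 isogenic control strain grown at permissive 25 °C; 0% = DMSO yeast wells and 100% = minimal medium wells without yeast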
Conditions: S. cerevisiae TIM10 strain growth, BacTiter-Glo luminescence, 24 h; at 10 µM; active compounds read high
For `NC(=O)Nc1ccc([As](=O)(O)O)cc1`, the inhibition was inactive: -0.771%. For `N#CCCN(C(=O)COC(=O)C(O)(c1ccccc1)c1ccccc1)c1ccc(F)cc1`, the inhibition was inactive: 13%. For `CN(C(=O)Cc1ccccc1)[C@@H]1CC[C@]2(CCCO2)C[C@H]1N1CCCC1`, the inhibition was inactive: 8.1%. With `CCOP1(=S)c2c(C)nn(CCC#N)c2N=C(c2ccc(F)cc2)N1C` (stereo unspecified) the inhibition was inactive: 2.44%. For `O=[N+]([O-])c1ccc2c(c1)nnn2O`, the inhibition was inactive: -3.72%. For `CN(C)C(=O)c1cc([N+](=O)[O-])cc2c1-c1c(cc([N+](=O)[O-])cc1[N+](=O)[O-])C2=O`, the inhibition was active: 78.3%. For `CN(C(=O)Cc1ccc(Cl)c(Cl)c1)[C@H]1CC[C@@]2(CCCO2)C[C@@H]1N1CCCC1`, the inhibition was inactive: 1.19%. For `CCOP1(=S)c2c(C)nn(CCC#N)c2N=C(c2ccccc2F)N1C` (stereo unspecified), the inhibition was inactive: 27.3%. With `O=P(Nc1nccs1)(Oc1ccccc1)Oc1ccccc1` the inhibition was inactive: 15.3%. With `O=P(Nc1nccs1)(c1ccccc1)c1nc2ccccc2s1` (stereo unspecified) the inhibition was inactive: -10.2%. In the case of `CS(=O)(=O)c1cc([N+](=O)[O-])c2no[n+]([O-])c2c1`, the inhibition is reported as inactive: -1.21%. In the case of `Nc1ccccc1[As](=O)(O)c1ccccc1`, the inhibition is reported as inactive: -6.35%. In the case of `O=C(O)COc1ccc([As](=O)(O)O)cc1[N+](=O)[O-]`, the inhibition is reported as inactive: -7.77%. In the case of `Cc1ccc(NCCc2c([N+](=O)[O-])cc([N+](=O)[O-])cc2[N+](=O)[O-])cc1`, the inhibition is reported as active: 47.3%. With `CCCOP(=S)(Nc1nc(N)cc(=O)[nH]1)OCCC` the inhibition was inactive: -10.7%. In the case of `COc1cc(C2NCCC3(OCCO3)C2(C)C)cc(OC)c1OC` (stereo unspecified), the inhibition is reported as inactive: 6.84%. In the case of `CCOP(=O)(Nc1cccc2ccccc12)OCC`, the inhibition is reported as inactive: -0.764%. In the case of `O=C(OC1CN2CCC1CC2)c1ccc(Cl)cc1` (stereo unspecified), the inhibition is reported as inactive: -12.2%. With `O=[As](O)(O)c1cccnc1` the inhibition was inactive: -0.425%. With `COc1cc(C(=O)NCC2(N3CCOCC3)CCCCC2)cc(Cl)c1OC(C)C` the inhibition was inactive: 8.47%. In the case of `CS(=O)(=O)c1ccc(Cl)c(NC(=O)COC(=O)C(O)(c2ccccc2)c2ccccc2)c1`, the inhibition is reported as inactive: 4.15%. For `Cc1cccc(OCC(=O)OC2CN3CCC2CC3)c1` (stereo unspecified), the inhibition was inactive: -6.7%. For `O=[As](O)(c1cccc(O)c1)c1cccc(O)c1`, the inhibition was inactive: 12.1%. With `COc1ccccc1CNC(=O)COC(=O)C(O)(c1ccccc1)c1ccccc1` the inhibition was inactive: 15.8%. In the case of `CC(C)/C=N\N=C(\N)N[N+](=O)[O-]`, the inhibition is reported as inactive: -12.2%. With `CN(C(=O)Cc1ccc(Cl)c(Cl)c1)[C@@H]1CCCC[C@H]1N1CCCC1` the inhibition was inactive: 2.91%. In the case of `O=[As](O)(c1ccccc1Br)c1ccccc1Br`, the inhibition is reported as inactive: 8.47%. With `CC1(CBr)Cn2c(nc3ccccc3c2=O)S1` (stereo unspecified) the inhibition was inactive: -12.3%. With `O=P1(Nc2ccccn2)COc2ccccc2OC1` the inhibition was inactive: -8.02%. With `CCC1=CC2Cc3nc4ccc(Cl)cc4c(N)c3C(C1)C2` (stereo unspecified) the inhibition was inactive: 0.468%. For `CCOP(=O)(NC(=NC(C)c1ccccc1)NC(C)c1ccccc1)OCC` (stereo unspecified), the inhibition was inactive: 25%. In the case of `CCOP(=O)(Nc1ccc(C)cn1)OCC`, the inhibition is reported as inactive: -17.6%. With `CN(CCCl)Cc1cc(Cl)c(NC2=NCCN2)c(Cl)c1` the inhibition was inactive: -9.45%. In the case of `Clc1n[nH]nc1-c1nn[nH][15n]1`, the inhibition is reported as inactive: 4.53%. For `CC(C)(C)C(=O)NC(Sc1ncccn1)C(Cl)(Cl)Cl` (stereo unspecified), the inhibition was inactive: -3.95%. With `O=P1(Nc2ncccn2)COc2ccccc2OC1` the inhibition was inactive: -19.4%. For `Nc1cccc([As](=O)(O)c2ccccc2)c1`, the inhibition was inactive: -10.4%. For `Cc1ccc(OCC(=O)OC2CN3CCC2CC3)cc1` (stereo unspecified), the inhibition was inactive: -4.66%. For `O=[As](O)(c1cccs1)c1cccs1`, the inhibition was inactive: 5.03%. In the case of `O=P1(Nc2ccc(Br)cn2)COc2ccccc2OC1`, the inhibition is reported as inactive: -1.07%. In the case of `NS(=O)(=O)c1cccc(NC(=O)COC(=O)C(O)(c2ccccc2)c2ccccc2)c1`, the inhibition is reported as inactive: 4.28%. For `Cc1nn(-c2ccccc2)c2c1P(=O)(N1CCOCC1)N(C)C(c1ccccc1)=N2` (stereo unspecified), the inhibition was inactive: 6.17%. In the case of `CC1CCC(C(C)C)C(OP(=O)(Nc2ccccn2)c2ccccc2)C1` (stereo unspecified), the inhibition is reported as inactive: 31.4%. With `Cc1ccc(C(=O)OC2CN3CCC2CC3)cc1` (stereo unspecified) the inhibition was inactive: -0.553%. For `CN(C)C1(CNC(=O)c2ccc(S(C)(=O)=O)cc2)CCCCC1`, the inhibition was inactive: -23.6%. In the case of `O=C(/C=C/c1ccccc1)OC1CN2CCC1CC2` (stereo unspecified), the inhibition is reported as inactive: 6.33%. In the case of `CCOC(=O)Nc1cccc([As](=O)(O)O)c1`, the inhibition is reported as inactive: 6.75%. With `O=P(Nc1ccccn1)(c1cccc2ccccc12)c1cccc2ccccc12` the inhibition was inactive: 28.1%. For `Cc1cc(SC(NC=O)C(Cl)(Cl)Cl)ncn1` (stereo unspecified), the inhibition was inactive: 10.5%. With `CCOC(=O)Nc1ccc([As](=O)(O)O)c(O)c1` the inhibition was inactive: 0.815%. With `CCCCOc1ccc(C(=O)NCC2(N3CCCCC3)CCCCC2)cc1OC` the inhibition was inactive: 6.18%. For `Cc1cc(SC(NC(=O)c2ccccc2)C(Cl)(Cl)Cl)nc(C(C)C)n1` (stereo unspecified), the inhibition was inactive: 24.2%. In the case of `O=C(OC1CN2CCC1CC2)c1cccc([N+](=O)[O-])c1` (stereo unspecified), the inhibition is reported as inactive: -99.5%. With `CCOC(=O)c1ccc(NC(=O)C(C)(CCl)SC)cc1` (stereo unspecified) the inhibition was inactive: -2.35%. In the case of `CCC(C)N(CC(C)C)C(=S)SC(NC(C)=O)C(Cl)(Cl)Cl` (stereo unspecified), the inhibition is reported as inactive: 10.3%. For `COP1(=S)c2c(C)nn(CCC#N)c2N=C(c2ccc(F)cc2)N1C` (stereo unspecified), the inhibition was inactive: 4.43%. With `O=C(COc1ccccc1)OC1CN2CCC1CC2` (stereo unspecified) the inhibition was inactive: -21.8%. With `O=C(Nc1ccncc1[N+](=O)[O-])c1ccc([N+](=O)[O-])cc1[N+](=O)[O-]` the inhibition was inactive: 25%. With `COc1ccc(N/C(=N/P(=O)(N2CCOCC2)N2CCOCC2)N2CCOCC2)cc1` the inhibition was inactive: -7.1%. In the case of `Cc1c2c(nc3ccccc13)SC(C(Cl)Cl)C2` (stereo unspecified), the inhibition is reported as inactive: -1.06%. With `O=C(OC1CN2CCC1CC2)C12CC3CC(CC(C3)C1)C2` (stereo unspecified) the inhibition was inactive: -3.7%. For `Cc1cc(=O)[nH]c(N[N+](=O)[O-])n1`, the inhibition was inactive: -6.52%. With `COc1ccc2nc(NP(=O)(c3ccccc3)c3ccccc3)sc2c1` the inhibition was inactive: -15.2%. With `COc1cc(I)ccc1[As](=O)(O)O` the inhibition was inactive: 4.63%. For `ClCCSc1nnc(-c2cccnc2)o1`, the inhibition was inactive: 4.72%. For `CC(C)c1ccc(OP(=O)(Nc2ccccn2)Oc2ccccc2F)cc1` (stereo unspecified), the inhibition was inactive: 0.45%. In the case of `CC(C)NC(=O)NP(=O)(Oc1ccccc1)Oc1ccccc1`, the inhibition is reported as inactive: 10.9%. With `CCN(CC)C(=S)SC(NC=O)C(Cl)(Cl)Cl` (stereo unspecified) the inhibition was inactive: 13.7%. In the case of `O=C(OC1CN2CCC1CC2)c1cccc2[nH]cnc12` (stereo unspecified), the inhibition is reported as inactive: 0.14%. In the case of `O=[N+]([O-])c1cc([N+](=O)[O-])c(-c2ccn[nH]2)s1`, the inhibition is reported as active: 88%. For `C[As](=O)(O)c1cccc(C(=O)O)c1`, the inhibition was inactive: -4.24%. In the case of `O=[As](O)(c1ccc(O)cc1)c1ccccc1O`, the inhibition is reported as inactive: -5.57%. With `COc1cc(C(=O)NCC2(N3CCOCC3)CCCCC2)ccc1OCC(C)C` the inhibition was inactive: 9.61%. For `Cc1ccc(OP(=O)(Nc2ccc([N+](=O)[O-])cn2)Oc2ccc(C)cc2)cc1`, the inhibition was inactive: -7.08%. For `Cc1ccc2nc3c(c(C)c2c1)CC(C(Cl)Cl)S3` (stereo unspecified), the inhibition was inactive: 8.68%. With `O=[N+]([O-])c1cc([N+](=O)[O-])c(CCN2CCOCC2)c([N+](=O)[O-])c1` the inhibition was inactive: 14.5%. In the case of `CCN(N=Nc1nonc1N)c1nonc1N`, the inhibition is reported as inactive: 4.47%. With `O=P(Nc1nc2ccc(Cl)cc2s1)(c1ccccc1)c1ccccc1` the inhibition was inactive: 20.7%. For `CC(=O)Nc1ccc([As](=O)(O)O)cc1`, the inhibition was inactive: 13.8%. For `O=C(O)c1ccccc1[As](=O)(O)O`, the inhibition was inactive: 3.56%. In the case of `Cc1cc(SC(NC(=O)c2ccc(F)cc2)C(Cl)(Cl)Cl)ncn1` (stereo unspecified), the inhibition is reported as inactive: -3.19%. With `CCOP(=O)(Nc1ccccc1)OCC` the inhibition was inactive: 3.59%. For `Cc1ccc(NP(=O)(Oc2ccccc2F)Oc2ccccc2F)nc1`, the inhibition was inactive: 18.8%. For `CN(C(=O)Cc1ccc(Cl)c(Cl)c1)[C@H]1CCCC[C@@H]1N1CCCC1`, the inhibition was inactive: -0.573%. With `Oc1ccccc1CNc1ccccn1` the inhibition was inactive: -8.94%. For `O=C(NC(Sc1ccncn1)C(Cl)(Cl)Cl)c1ccccc1` (stereo unspecified), the inhibition was inactive: 18%. For `Cc1c2non([O-])c-2c(C)[n+](=O)[n+]1[O-]`, the inhibition was inactive: 32.4%. With `Nc1cc(N)c2nonc2c1[N+](=O)[O-]` the inhibition was inactive: 7.14%. For `CC(C)CC(=O)NC(Sc1ccc(Cl)cc1)C(Cl)(Cl)Cl` (stereo unspecified), the inhibition was inactive: 8.84%. With `CN(C(=O)Cc1ccc(Cl)c(Cl)c1)[C@H]1CCCC[C@H]1N1CCCC1` the inhibition was inactive: 4.6%. In the case of `Cc1ccc(N/C(=N/P(=O)(N2CCOCC2)N2CCOCC2)N2CCOCC2)cc1`, the inhibition is reported as inactive: 10.1%. In the case of `NC(=O)c1cc([N+](=O)[O-])cc([N+](=O)[O-])c1N`, the inhibition is reported as inactive: -4.98%. With `CN1CCCC(OC(=O)C(c2ccccc2)c2ccccc2)C1` (stereo unspecified) the inhibition was inactive: -9.98%. For `Clc1ccc(Cl)c(NC2=NCC(CBr)S2)c1` (stereo unspecified), the inhibition was inactive: 14.5%. In the case of `COc1ccccc1OP(=O)(Nc1ccc(C)cn1)Oc1ccccc1OC`, the inhibition is reported as inactive: -3.25%. With `Cc1ccc(OP(=O)(Nc2nccs2)Oc2ccc(C)cc2)cc1` the inhibition was inactive: 20.9%. With `CCN(/C(=N/P(=O)(N1CCOCC1)N1CCOCC1)N1CCOCC1)c1ccc(OC)cc1` the inhibition was inactive: -7.72%. For `Nc1ccc([As](=O)(O)c2ccc(N)cc2)cc1`, the inhibition was inactive: 5.18%. For `C[N+]1=C2C=CC=CC=C2SC12C([N+](=O)[O-])=CC([N+](=O)[O-])=C[C-]2[N+](=O)[O-]` (stereo unspecified), the inhibition was inactive: 15.8%. With `CC1CCN(C(=O)Oc2c(Cl)cc(Cl)c3cccnc23)CC1` the inhibition was inactive: 27.8%. In the case of `CC(C)=N/N=C(\N)N[N+](=O)[O-]`, the inhibition is reported as inactive: 1.23%.
